# Test results: ChEMBL document CHEMBL2169742, “Design, synthesis, and biological evaluation of novel transrepression-selective liver X receptor (LXR) ligands with 5,11-dihydro-5-methyl-11-methylene-6H-dibenz[b,e]azepin-6-one skeleton” (J Med Chem, 2012)
# Chains of the proteins cited; added tags and fusions are not shown.
# UniProt P55055, whole entry: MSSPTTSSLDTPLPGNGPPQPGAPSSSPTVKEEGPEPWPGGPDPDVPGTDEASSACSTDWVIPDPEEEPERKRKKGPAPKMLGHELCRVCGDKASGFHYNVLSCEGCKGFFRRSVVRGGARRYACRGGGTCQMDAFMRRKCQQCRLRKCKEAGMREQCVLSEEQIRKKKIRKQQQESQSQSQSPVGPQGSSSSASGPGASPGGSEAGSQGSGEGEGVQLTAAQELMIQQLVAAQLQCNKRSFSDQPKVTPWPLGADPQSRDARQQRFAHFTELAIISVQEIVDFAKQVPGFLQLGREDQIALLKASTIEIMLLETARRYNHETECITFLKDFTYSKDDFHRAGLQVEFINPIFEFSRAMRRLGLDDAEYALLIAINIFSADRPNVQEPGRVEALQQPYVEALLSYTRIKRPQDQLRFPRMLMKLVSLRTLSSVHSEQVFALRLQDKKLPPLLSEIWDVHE
# UniProt Q13133, whole entry: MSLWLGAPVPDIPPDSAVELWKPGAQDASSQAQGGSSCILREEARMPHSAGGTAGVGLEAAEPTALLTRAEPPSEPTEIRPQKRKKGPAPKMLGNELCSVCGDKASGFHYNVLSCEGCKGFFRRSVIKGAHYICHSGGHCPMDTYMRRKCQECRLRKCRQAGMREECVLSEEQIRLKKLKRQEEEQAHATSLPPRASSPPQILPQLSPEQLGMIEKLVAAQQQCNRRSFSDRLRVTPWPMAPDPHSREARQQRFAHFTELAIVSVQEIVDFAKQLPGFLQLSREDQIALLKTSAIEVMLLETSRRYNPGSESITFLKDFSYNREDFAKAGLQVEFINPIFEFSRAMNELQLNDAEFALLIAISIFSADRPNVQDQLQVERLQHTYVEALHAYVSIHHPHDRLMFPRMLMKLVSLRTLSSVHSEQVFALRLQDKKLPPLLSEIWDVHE
# Key:
# [1] = target: Oxysterols receptor LXR-beta (Homo sapiens, UniProt P55055); experiment: Transactivational antagonist activity at human LXRbeta transfected in HEK293 cells expressing CMX-Gal4N assessed as inhibition of T1317-induced luciferase activity at 30 uM after 16 hrs by reporter gene assay; type: functional, cell-based
# How it was run: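 Gal4-hLXRα or Gal4-hLXRβ chimera (15 ng) cotransfected with tk-MH100×4-luc reporter (50 ng) and CMX-β-gal (10 ng) into HEK293 cells by calcium phosphate. From 8 h post-transfection, cells got compound (0.1–30 μM) or DMSO for 16 h. Luciferase was normalized to β-gal, in triplicate.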
# [2] = target: Oxysterols receptor LXR-alpha (Homo sapiens, UniProt Q13133); conditions: HEK293, 30 uM
inhibition [1],inhibition [2],Structure (SMILES)
inactive,inactive,CN1C(=O)c2ccccc2Oc2cc(C(O)(C(F)(F)F)C(F)(F)F)ccc21
inactive,inactive,C=C1c2ccccc2C(=O)N(C)c2ccc(C(O)(C(F)(F)F)C(F)(F)F)cc21
inactive,inactive,CN1C(=O)c2ccccc2CCc2cc(C(O)(C(F)(F)F)C(F)(F)F)ccc21
inactive,inactive,CN(C(=O)c1ccccc1)c1ccc(C(O)(C(F)(F)F)C(F)(F)F)cc1

# Activity calls are given as the source filed them. The calls are words filed in the database; no cut-off is given here.
